This is an account of results in ChEMBL document CHEMBL2401649, “Cyclic enkephalins with a diversely substituted guanidine bridge or a thiourea bridge: synthesis, biological and structural evaluations” (J Med Chem, 2013).

Sequences of proteins named here, by UniProt entry; tags and fusion partners are left off.
UniProt P97266, whole entry, looked up: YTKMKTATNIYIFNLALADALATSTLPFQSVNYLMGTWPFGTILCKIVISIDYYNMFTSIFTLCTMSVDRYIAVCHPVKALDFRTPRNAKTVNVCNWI
UniProt P32300, whole entry, looked up: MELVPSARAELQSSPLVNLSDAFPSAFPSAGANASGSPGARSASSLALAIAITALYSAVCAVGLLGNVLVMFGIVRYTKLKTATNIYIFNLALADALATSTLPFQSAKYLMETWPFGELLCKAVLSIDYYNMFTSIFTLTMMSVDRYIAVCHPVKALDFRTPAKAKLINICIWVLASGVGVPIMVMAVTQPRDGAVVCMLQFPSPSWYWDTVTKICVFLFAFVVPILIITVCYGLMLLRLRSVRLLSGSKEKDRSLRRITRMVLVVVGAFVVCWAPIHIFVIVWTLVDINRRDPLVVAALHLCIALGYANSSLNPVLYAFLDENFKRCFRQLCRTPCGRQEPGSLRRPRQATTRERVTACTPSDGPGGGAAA

In assay [1] the target is Mu-type opioid receptor (Cavia porcellus) (UniProt P97266). Briefly: Agonist activity at mu opioid receptor in guinea pig ileum relative to leu-enkephalin.
For the next assay, the species on record is Rattus norvegicus. Briefly: Selectivity ratio of Ki for delta opioid receptor in Wistar rat brain membranes to Ki for mu opioid receptor in Wistar rat brain membranes. Format: cell membranes. Conditions: Membrane.
For assay [2], the target named is Delta-type opioid receptor (Mus musculus) (UniProt P32300). In words: Agonist activity at delta opioid receptor in mouse vas deferens relative to leu-enkephalin.

Several values for one entry are separate records, joined by “and”; a condition that tells them apart may be missing. Equal values may be shown once.

Consider `CS/C1=N/C[C@@H](C(N)=O)NC(=O)[C@H](Cc2ccccc2)NC(=O)CNC(=O)[C@H](NC(=O)[C@@H](N)Cc2ccc(O)cc2)CN1`, for which the fold change (FC) in assay [1] was 13.8; in assay [2], 0.55. For the same compound, in the assay filed under Rattus norvegicus, the Ratio Ki is 2.6.
`CN/C1=N/C[C@@H](C(N)=O)NC(=O)[C@H](Cc2ccccc2)NC(=O)CNC(=O)[C@H](NC(=O)[C@@H](N)Cc2ccc(O)cc2)CN1`: the values for the fold change (FC) in assay [1] and in assay [2] were 5.89 and 0.149, respectively.
As for `NC(=O)[C@@H]1C/N=C(/N)NC[C@@H](NC(=O)[C@@H](N)Cc2ccc(O)cc2)C(=O)NCC(=O)N[C@@H](Cc2ccccc2)C(=O)N1`, the figures for the fold change (FC) in assay [1] and in assay [2] were 1.01 and 0.0329, respectively. Further, the Ratio Ki in the assay filed under Rattus norvegicus was determined as 38.9.
Consider `NC(=O)[C@@H]1C/N=C(/N2CCCCC2)NC[C@@H](NC(=O)[C@@H](N)Cc2ccc(O)cc2)C(=O)NCC(=O)N[C@@H](Cc2ccccc2)C(=O)N1`, for which the fold change (FC) was determined as 0.618 in assay [1] and 0.0373 in assay [2]. Also, in the assay listed under Rattus norvegicus, the Ratio Ki was 5.5 and 10.5 and 10.2.
On to `NC(=O)[C@@H]1CNC(=S)NC[C@@H](NC(=O)[C@@H](N)Cc2ccc(O)cc2)C(=O)NCC(=O)N[C@@H](Cc2ccccc2)C(=O)N1` (stereo in doubt; 7a), for which the fold change (FC) stood at 140 in assay [1] and 4.81 in assay [2]. The Ratio Ki in the assay listed under Rattus norvegicus is 10.5 and 13.5.
